Reference: PubChem BioAssay AID1721 (National Center for Advancing Translational Sciences (NCATS), 2009)
The list shows a part of the results, in another mix than the full data. Some of these compounds have results that are not shown, active ones among them. Activity calls are given as the source filed them. Calls come from the whole dose curve; as a rule, active = well fitted inhibition curve with a large enough effect; inconclusive = small, poorly fitted or top-dose-only effect, or another doubt; inactive = no such curve, though single readings can be large or run the other way.

The chains behind the UniProt entries cited, without tags or fusion partners.
UniProt Q27686, whole entry: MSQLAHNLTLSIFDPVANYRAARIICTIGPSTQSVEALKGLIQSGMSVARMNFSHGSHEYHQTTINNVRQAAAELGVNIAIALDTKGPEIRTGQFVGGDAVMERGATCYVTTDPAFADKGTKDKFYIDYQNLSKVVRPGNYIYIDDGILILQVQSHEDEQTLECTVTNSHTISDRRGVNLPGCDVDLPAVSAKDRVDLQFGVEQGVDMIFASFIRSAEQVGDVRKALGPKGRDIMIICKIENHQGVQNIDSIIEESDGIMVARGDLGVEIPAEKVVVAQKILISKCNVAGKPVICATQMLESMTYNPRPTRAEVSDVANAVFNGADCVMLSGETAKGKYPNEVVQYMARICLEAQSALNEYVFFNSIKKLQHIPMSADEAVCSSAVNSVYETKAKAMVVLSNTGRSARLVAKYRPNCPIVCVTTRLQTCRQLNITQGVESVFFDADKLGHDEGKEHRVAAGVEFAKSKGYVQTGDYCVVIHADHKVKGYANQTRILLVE

target: Pyruvate kinase (Leishmania mexicana) (UniProt Q27686); assay: qHTS Assay for Inhibitors of Leishmania Mexicana Pyruvate Kinase (LmPK); conditions: purified LmPK, Kinase-Glo ATP luminescence, 1 h; at 57.5 µM (top of the series)
Text: NIH Chemical Genomics Center [NCGC] Malcolm Walkinshaw, Hugh Morgan, Linda Gilmore University of Edinburgh, UK MLPCN Grant: 1 R03 MH085697-01 NCGC Assay Overview: Pyruvate kinase (L. Mexicana) (LmPK) enzyme was supplied as a highly purified (>95% pure) sulphate-free preparation from University of Edinburgh, UK and assayed for its ability to generate ATP from ADP using phosphoenolpyruvate (PEP) as a substrate. ATP generation was detected in a coupled reaction by luciferase-mediated luminescence, an ATP-dependent process. […] The enzyme was assayed at an intermediate level of activity to screen for both inhibitors and activators.
NCGC Assay Protocol Summary: Three uL of enzyme mix (kept on ice) in assay buffer (50 mM Imidazole pH7.2, 50 mM KCl, 7 mM MgCl2, 0.01% Tween 20, 0.05% BSA) containing PEP (0.5 mM final concentration) and LmPK (0.1 nM final concentration) was dispensed into white solid bottom 1,536 well microtiter plates. 23 nL of compound were delivered by a pin tool and 1 uL of ADP mix in assay buffer (r.t; 0.1 mM final ADP concentration) was added. Plates were incubated at room temperature for 1 hour. Two uL of detection mix (Kinase-Glo, Promega; at 4 degree Celsius protected from light) was added and luminescence read by a ViewLux (Perkin Elmer) at 1 second exposure/plate. Data were normalized to the uninhibited and AC100 inhibition (no enzyme). […]
% is set by controls: 0 for no effect and ±100 for the full control effect.

Structure (SMILES)	activity change, negative = inhibition
C=CCN1CCN(CCOC(=O)C(O)(c2ccccc2)c2ccccc2)CC1	inactive: 1.53%
CC(C)N1C(=O)CC2(CCN(CCOC(=O)C(O)(c3ccccc3)c3ccccc3)CC2)C1=O	inactive: 2.55%
